Values quoted from earlier work in PMC9039622 (Frontiers in Pharmacology, 2022).

Conditions: ref Strang et al., 2018; cited from earlier work

CO[C@]12CC[C@@]3(C[C@@H]1[C@](C)(O)C(C)(C)C)[C@H]1Cc4ccc(O)c5c4[C@@]3(CCN1)[C@H]2O5
respiratory depression relative to BUP: 10 fold
